How the values were obtained:
Bcl-2 = Bcl-2 (Homo sapiens (Human), UniProt P10415); test: Fluorescence polarization competitive binding assay, Bcl-2; conditions: FP competition with Flu-BIM probe; read-out: Inhibitory activity IC50 Bcl-2
Bcl-xL = Bcl-xL (Homo sapiens (Human), UniProt Q07817); test: Fluorescence polarization competitive binding assay, Bcl-xL; conditions: FP competition with Flu-BAK probe; read-out: Inhibitory activity IC50 Bcl-xL

The chains behind the UniProt entries cited, without tags or fusion partners.
UniProt P10415, whole entry: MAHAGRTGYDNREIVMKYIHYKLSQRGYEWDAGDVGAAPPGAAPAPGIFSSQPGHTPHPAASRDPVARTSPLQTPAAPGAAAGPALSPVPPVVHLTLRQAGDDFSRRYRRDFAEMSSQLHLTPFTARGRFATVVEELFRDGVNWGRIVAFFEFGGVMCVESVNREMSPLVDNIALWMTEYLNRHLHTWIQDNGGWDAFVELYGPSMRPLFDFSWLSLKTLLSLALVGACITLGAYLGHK
UniProt Q07817, whole entry: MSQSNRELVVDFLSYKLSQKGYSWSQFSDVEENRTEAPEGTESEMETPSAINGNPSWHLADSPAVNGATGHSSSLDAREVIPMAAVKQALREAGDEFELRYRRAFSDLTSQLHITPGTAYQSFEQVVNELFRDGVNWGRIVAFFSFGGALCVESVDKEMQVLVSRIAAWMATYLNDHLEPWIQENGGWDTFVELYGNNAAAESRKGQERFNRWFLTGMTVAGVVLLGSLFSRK

Substance	IC50 (Bcl-2) [nM]	IC50 (Bcl-xL) [nM]
(R)-N-((4-(((1,4-dioxan-2-yl)methyl)amino)-3- nitrophenyl)sulfonyl)-2-((1H-pyrrolo[2,3- b]pyridin-5-yl)oxy)-4-(1-((6-(4-chlorophenyl)-2- oxaspiro[3.5]non-6-en-7-yl)methyl)-1,2,3,6- tetrahydropyridin-4-yl)benzamide [Cpd. No. 5]	2.1	
2-((1H-pyrrolo[2,3-b]pyridin-5-yl)oxy)-4-(1-((6- (4-chlorophenyl)-2-oxaspiro[3.5]non-6-en-7- yl)methyl)-1,2,3,6-tetrahydropyridin-4-yl)-N-((3- nitro-4-(((tetrahydro-2H-pyran-4- yl)methyl)amino)phenyl)sulfonyl)benzamide [compound 9]	1.9	20.6

Source: US11718613B2
